PINK1 expr mod = modulators of PINK1 expression; PINK1 immunofluorescence, high-content cytometry, 24 h; Potency, µM (titrated, usually from 76.6 µM), hits mostly activators; hit rate 0.2% among 410,000; AID 624263; active = well fitted activation curve with a large enough effect; inconclusive = small, poorly fitted or top-dose-only effect; cell line not stated here; also: nearly all actives have a fitted effect of over 65% in size
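Cells are seeded, rested 12 hours, then given compound at five concentrations or DMSO for 24 hours. After fixation, blocking and antibody staining, PINK1 amount and mitochondrial localization are scored; CCCP serves as control.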
GALK inh = blocks human galactokinase activity | P51570 | Purified GALK, Kinase-Glo residual ATP luminescence | Potency, µM (highest dose often 57.5 µM), actives largely listed as inhibitors | hit rate 0.007% among 270,000
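Kinase-Glo Plus luminescence measured ATP left after a 1 h room-temperature reaction. The reaction used 5 nM GALK, 100 uM galactose and 35 uM ATP at pH 8.0 (20 mM HEPES, 5 mM MgCl2, 60 mM NaCl, 1 mM DTT, 0.01% BSA).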
TrxR1 inh = rat TrxR1 inhibition. AID 588453. hit rate 1% among 390,000. recombinant rTrxR1, NADPH fluorescence consumption, selenite substrate. Potency, µM (doses to about 114 µM), usual class: inhibitors; also: nearly all actives have a fitted effect of over 65% in size
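Rat TrxR1 (90 nM in the dispensed reagent) was pre-reduced with 400 uM NADPH for 5 min at room temperature, then incubated with compound for 15 min. After 400 uM selenite was added, NADPH fluorescence (Ex 340/Em 450 nm) was followed for 8 min.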
TrxR1 substrate = substrates of rat thioredoxin reductase 1. hit rate 0.01% among 390,000. purified TrxR1 substrate turnover, NADPH consumption readout. Potency, µM (titrated, usually from 114 µM); also: nearly all actives have a fitted effect of over 50% in size
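Rat TrxR1, dispensed at 90 nM, was prereduced with 400 uM NADPH (final) for 5 min at ~22 deg C, then incubated with compound 15 min before 400 uM selenite. A first-read NADPH fluorescence drop versus no-compound background flagged substrates.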
miR-21 reporter = miR-21 reporter, rising signal; HeLa miR-21 FLuc reporter, luciferase, 48 h; Potency, µM (doses to about 38.3 µM); 340,000 tested, under 10 active; AID 2288; active = well fitted rising curve with a large enough effect; inconclusive = small, poorly fitted or top-dose-only effect; inactive = no such curve, though single readings can be large or run the other way;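 further: miR-21 action dims this reporter so a rising signal means less miR-21 action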
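Luminescence from a firefly luciferase reporter carrying a miR-21 binding site downstream, stably expressed under a CMV promoter in HeLa cells that make miR-21 endogenously, reports miRNA modulation after 48 h compound exposure up to approximately 40uM final.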
Hits are given with their value; n = inactive; u = inconclusive; x = no result given; [ ] = remark or other dose. Rows were chosen to be rich in hits. Some 1.1% of all compounds tested hit in one or more screens of this group. Unless noted, calls follow the shape of the dose curve; as a rule, active = well fitted curve in the direction sought with a large enough effect; inconclusive = small, poorly fitted or top-dose-only effect, or another doubt; inactive = no such curve, though single readings can be large; an effect the other way counts as inactive or inconclusive.

SMILES	PINK1 expr mod	GALK inh	TrxR1 inh	TrxR1 substrate	miR-21 reporter
CCC(NC(=S)NCc1ccc(F)cc1)c1ccc(C(C)C)cc1 (stereo not drawn)	15.8µM	n	n	n	n
O=C(N/N=C/c1ccc([N+](=O)[O-])o1)c1ccccc1NS(=O)(=O)c1cccs1	n	n	39.8µM	n	u
O=C(N/N=C/c1ccc([N+](=O)[O-])o1)c1ccc(O)cc1	u	n	20µM	n	u
O=C(CCC(=O)Nc1ccc(Cl)cc1Cl)N/N=C/c1ccc([N+](=O)[O-])o1	u	n	11.2µM	n	u
O=C(NN=Cc1ccc(F)cc1)c1ccccc1NS(=O)(=O)c1cccs1	n	x	n	n	x
O=[N+]([O-])c1ccc(/C=N/NC(=S)Nc2ccccc2)o1	n	n	17.8µM	n	n
O=C(c1cn(C2CCCN(Cc3cccc(Oc4ccccc4)c3)C2)nn1)N1CCCC1 (stereo not drawn)	n	x	x	x	x
Cc1nc2c3ccccc3nc(NNC(=O)CCC(=O)N3CCN(c4cccc(Cl)c4)CC3)n2n1	n	x	n	n	n
O=C(N/N=C/c1ccc(-c2ccccc2[N+](=O)[O-])o1)c1cncc(Br)c1	n	n	n	n	n
O=C(N/N=C\c1ccc([N+](=O)[O-])o1)c1cncc(Br)c1	n	n	22.4µM	n	u
O=[N+]([O-])c1ccc(NNC(=S)Nc2ccccc2)cc1	14.1µM	n	u	n	n
Cc1ccc2cc(CN(Cc3ccco3)S(=O)(=O)c3c(C)ccc4nsnc34)c(=O)[nH]c2c1	n	n	12.6µM	n	n
O=C(NCN1CCc2ccccc2C1)c1cnccn1	n	n	20µM	n	n
CCc1nnc(NC(=O)CSc2nc3cc4c(cc3cc2CC)OCCO4)s1	11.2µM	n	n	n	n
CCOC(=O)c1c(N2C(=O)C=CC2=O)sc(C)c1C	x	n	2.24µM	n	n
CC(=O)c1sc2nc(-c3ccco3)ccc2c1N	n	n	10µM	n	n
CCS(=O)(=O)CCSc1nc2ccccc2o1	n	n	n	n	n
O=S(=O)(CCSc1nc2ccccc2o1)c1nc2ccccc2s1	n	n	1.12µM	n	u
O=S(=O)(CCSc1ccccn1)c1nc2ccccc2s1	u	n	14.1µM	n	u
C(=Nc1cnc2ccccc2c1)c1ccncc1	n	x	n	n	x
Cc1ccc2cc(CN(C(=O)c3ccco3)c3ccccc3)c(=O)[nH]c2c1	n	n	u	n	n
Cc1cccc(N(Cc2cc3ccc(C)cc3[nH]c2=O)C(=O)c2ccco2)c1	n	n	35.5µM	n	n
O=C(Cn1cnc([N+](=O)[O-])c1)c1ccc(Cl)cc1	n	x	n	n	x
O=C(C[n+]1cnn(CC(=O)c2ccc(Cl)cc2Cl)c1)c1ccc([N+](=O)[O-])cc1	n	n	50.1µM	n	n
Cc1cccc(N(CC(=O)NCCSCc2ccco2)S(=O)(=O)c2ccccc2)c1	n	n	11.2µM	n	n
SMILES	PINK1 expr mod	GALK inh	TrxR1 inh	TrxR1 substrate	miR-21 reporter
COc1cccc(N(CC(=O)NCCSCc2ccco2)S(=O)(=O)c2ccccc2)c1	n	n	n	n	n
COc1ccccc1N(CC(=O)NCc1ccco1)S(=O)(=O)c1ccc(C)cc1	n	n	31.6µM	n[0.0914 µM]	n
O=C(CN(C1CCCCC1)S(=O)(=O)c1ccccc1)NCc1ccco1	x	n	28.2µM	n	n
COc1ccc(C2CC(c3ccccc3)Oc3c(C)ccc(C)c32)cc1 (stereo not drawn)	x	x	n	n	x
COc1cccc(C(=O)NN2C(=O)C3C4C=CC(O4)C3C2=O)c1 (stereo not drawn)	n	n	28.2µM	n	n
ClCc1cc2ccccc2nc1Cl	n	n	n	n	n
Cc1ccc2cc(CCl)c(Cl)nc2c1	n	n	44.7µM	n	n
CCOCCCNc1nc2c(S(=O)(=O)c3ccc(CC)cc3)nnn2c2ccc(Cl)cc12	n	x	n	n	n
Cc1ccc(S(=O)(=O)C2CS(=O)(=O)CC2O)cc1 (stereo not drawn)	n	n	n	n	n
CC(=O)C1=C(S(=O)(=O)c2ccc(C)cc2)CS(=O)(=O)C1	n	n	1.26µM	n	n
CCCN1CNc2c(c(=O)[nH]c(=S)n2CCC(C)(C)C)C1	n	x	n	n	x
CCc1sc(C(C2C(=O)CC(C)(C)CC2=O)C2C(=O)CC(C)(C)CC2=O)cc1[N+](=O)[O-]	n	n	1.78µM	n	n
CC1(C)CC(=O)C(C(c2ccco2)C2C(=O)CC(C)(C)CC2=O)C(=O)C1	n	n	u	n	n

Source: PubChem BioAssay (National Center for Advancing Translational Sciences (NCATS))
